# scFv variants of Ab-14 (light chain) against a SARS-CoV-2 spike peptide

From the AlphaSeq antibody data of Engelhart et al. 2022 (doi:10.1038/s41597-022-01779-4), copy in the FLAb collection.

All variants were tested on one target, the spike HR2 peptide PDVDLGDISGINAS (SARS-CoV-2).

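The starting antibody came from a phage panning campaign against this peptide. Library AAYL50 holds single substitutions and randomly drawn double and triple substitutions in the CDRs. The scFvs were displayed on barcoded MATa yeast, the peptide on MATalpha yeast. Pairs that bind mate more often; barcode pairs of the diploids are counted by sequencing. Read counts were normalised to the haploid input and turned into Kd by a linear fit to BCL2-family pairs of known affinity, for each replicate. The assay was run in three technical replicates.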

Each scFv is VH, the linker GGGGSGGGGSGGGGS, VL, as in the parent Ab-14, and differs from it in the CDRs of the light chain only.
VH: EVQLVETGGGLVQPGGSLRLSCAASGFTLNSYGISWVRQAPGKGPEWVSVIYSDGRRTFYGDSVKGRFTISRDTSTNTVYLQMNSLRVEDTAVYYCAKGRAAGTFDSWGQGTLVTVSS
VL: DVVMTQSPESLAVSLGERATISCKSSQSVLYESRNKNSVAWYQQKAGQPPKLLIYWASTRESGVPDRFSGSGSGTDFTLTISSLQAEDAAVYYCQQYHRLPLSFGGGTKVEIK

Substitutions are numbered in sequence along the VL above, starting at 1 (not Kabat).
The read-out is the apparent dissociation constant on a log10 scale (nM): the lower, the stronger.
A pair that was not seen in that replicate is written "nd"; this usually means weak binding, but a binder can also be missed.

changes,"replicates, log10 nM",control signals
S28L A57M S62W,nd nd nd,1/9 (4.14)
S25R S58I Q95G,3.48 nd nd,3/9 (4.19)
A57K R60V Q96V,5.58 nd 5.48,4/9 (4.34)
S25L S33C S58F,1.48 1.66 1.65,1/9 (3.20)
N35V S58Y R60C,3.15 nd 3.03,1/9 (3.66)
K24D V29S S58Y,4.82 3.52 nd,2/9 (4.00)
S28H N35P S38C,nd nd 3.59,0/9
S28K S33V S38F,nd nd nd,5/9 (4.21)
Q27N H98G S103E,1.43 1.51 1.76,3/9 (4.05)
Q27G R34I P101M,1.64 1.71 1.86,2/9 (4.15)
S25M S38P Q96A,1.19 1.41 1.31,3/9 (4.40)
Q27T A40V S58I,nd nd nd,1/9 (3.90)
E32V Q95A Q96I,nd nd nd,1/9 (1.74)
V39D Q96I,nd 3.77 nd,0/9
A40F Q96S S103E,nd nd nd,0/9
S26C S62D,0.75 0.96 0.94,1/9 (2.83)
A40S W56D Y97W,nd nd 3.25,0/9
N37E A57P S58R,nd nd nd,3/9 (3.96)
V39L,nd nd 4.42,1/9 (4.43)
W56M T59K L100E,nd 5.52 nd,6/9 (4.24)
S58G L102P,2.80 2.45 2.22,2/9 (3.52)
V39R W56Y Q96R,4.64 3.75 nd,3/9 (3.62)
K24M K36V T59C,1.89 1.57 1.74,0/9
E32K S58F T59Q,3.62 3.29 3.68,4/9 (3.77)
Y97D P101E L102T,4.46 3.71 4.05,5/9 (4.54)
K24F Q96N L102N,4.77 nd nd,1/9 (4.09)
R34M S58P,nd nd nd,2/9 (4.28)
S26N L100S S103N,nd nd nd,2/9 (4.34)
A40M H98C S103N,4.81 3.95 6.56,4/9 (4.49)
S62T Y97H L100C,4.43 4.37 nd,2/9 (4.53)
L30C N37V Y97I,nd nd 4.82,3/9 (3.67)
Y97C R99V P101T,0.67 1.07 1.13,1/9 (2.77)
S28Y N35M P101F,nd nd nd,0/9
K24E S26P Q27H,2.60 2.45 2.74,7/9 (4.31)
E32K Q95M P101G,nd nd nd,3/9 (4.30)
S58C Y97P L100S,nd nd nd,1/9 (3.60)
V39D S62E,3.23 3.86 nd,1/9 (4.09)
S28K Q95I,3.46 nd nd,1/9 (3.93)
E32P Q96F Y97G,nd nd nd,0/9
Q27P L30W L100W,1.61 2.15 1.84,2/9 (3.87)
S33C R60P S103M,nd nd nd,2/9 (3.46)
S28N K36S E61F,0.66 0.89 0.81,1/9 (5.38)
S25T N35G A57T,nd nd nd,0/9
V29Y Y31F N37V,3.91 2.76 4.25,1/9 (3.90)
S25N K36G A40N,3.98 5.04 nd,4/9 (4.58)

The last 7 entries again:

changes	replicates, log10 nM	control signals
E32P Q96F Y97G	nd nd nd	0/9
Q27P L30W L100W	1.61 2.15 1.84	2/9 (3.87)
S33C R60P S103M	nd nd nd	2/9 (3.46)
S28N K36S E61F	0.66 0.89 0.81	1/9 (5.38)
S25T N35G A57T	nd nd nd	0/9
V29Y Y31F N37V	3.91 2.76 4.25	1/9 (3.90)
S25N K36G A40N	3.98 5.04 nd	4/9 (4.58)

Empty control strains, which show no peptide, gave a signal in 18% of pairings with library AAYL50; the median was 4.19 and 95% of these signals were weaker than 2.99. No background was subtracted. Also given: how often the same scFv was detected with the empty control strains, with their mean in brackets.